{
  "source": "patent US20110010099A1",
  "about": "“Correlation Analysis of Biological Systems” (priority 2005, published 2011)",
  "test_system": "liver mRNA transcripts (Enzyme_ABC, Enzyme_DEF)",
  "assay": "Liver mRNA transcript profiling (Affymetrix U34A) in rat hepatotoxicity study",
  "conditions": "Group 3 compared to Group 1",
  "data": [
    {"compound": "Cn1c(=O)c2c(ncn2CC2OCCO2)n(C)c1=O", "note": "[ABC123]", "values": [
      {"measurement": "abundance of mRNA transcript for Enzyme_DEF in liver", "value": "lower in abundance"}
    ]}
  ]
}
